Target: T1, AChE enzyme from Electrophorus electricus (Electrophorus electricus, UniProt O42275)
T1 construct: purchased Sigma-Aldrich Co., LLC
Test: biochemical
Experimental: For assessment of AChE inhibitory activity, we used a colorimetric microplate assay based on the colour change during reaction of ACh with Ellman’s reagent.
In vitro AChE inhibitory activity was studied using the colorimetric method of Ellman using the AChE enzyme from Electrophorus electricus. To a 96-well microplate, test solutions were applied along with 0.2 mg/mL bovine serum albumin, 1 mM 5,5-dithiobis-(2-nitro-benzoic acid), and 0.05 mM acetylthiocholine iodide. The reaction was initiated by addition of 0.20 units/mL AChE enzyme and followed by colorimetric detection performed at 405 nm. Experiments were conducted in triplicate.
Electrophysiological data were analysed using pClamp 10.2 (Molecular Devices, San Jose, CA, USA). During analysis, traces were baseline subtracted and responses to individual applications quantified as peak-current amplitudes. […] For evaluation of the inhibitory activity, the percentage of remaining peak-current amplitudes relative to that of the AChcontrol application was calculated. […] AChE inhibition data were analysed using GraphPad Prism 7. Absorption readings from the AChE inhibition assay were plotted versus time and linear regression was performed. From the obtained slopes, percentages of inhibition were calculated, and IC50 values were determined from non-linear regression calculations.

Sequences of proteins named here, by UniProt entry; tags and fusion partners are left off. Residues count along the entry.
UniProt O42275, 24-633: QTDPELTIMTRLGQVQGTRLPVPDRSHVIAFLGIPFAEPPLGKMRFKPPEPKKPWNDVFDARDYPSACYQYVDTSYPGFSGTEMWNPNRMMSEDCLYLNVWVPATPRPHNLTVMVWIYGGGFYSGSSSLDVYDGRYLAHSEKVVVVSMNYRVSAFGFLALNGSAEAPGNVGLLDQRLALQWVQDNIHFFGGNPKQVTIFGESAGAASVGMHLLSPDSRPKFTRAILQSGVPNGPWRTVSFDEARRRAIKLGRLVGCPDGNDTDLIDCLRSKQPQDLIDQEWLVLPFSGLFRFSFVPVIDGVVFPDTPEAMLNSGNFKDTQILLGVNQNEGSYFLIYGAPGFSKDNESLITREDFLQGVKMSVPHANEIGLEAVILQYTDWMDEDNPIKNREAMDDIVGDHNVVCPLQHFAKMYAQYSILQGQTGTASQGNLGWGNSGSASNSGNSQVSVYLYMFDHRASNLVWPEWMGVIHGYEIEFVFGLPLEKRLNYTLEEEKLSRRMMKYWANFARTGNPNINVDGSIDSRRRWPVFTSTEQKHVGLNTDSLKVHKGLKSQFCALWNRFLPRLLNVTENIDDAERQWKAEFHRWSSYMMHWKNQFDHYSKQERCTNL

CNC(=O)Oc1ccc2c(c1)[C@]1(C)CCN(C)[C@@H]1N2C [Compound 5, Physostigmine, reference compound]
IC50 (AChE IC50): 780 nM
IC50 (AChE pIC50 ± SEM): 741 nM
